Experimental data as given in US12290596B2.

Test system: remifentanil-induced suppression of CO2-induced increases in minute ventilation

## C=C1CC[C@@]2(O)[C@H]3Cc4ccc(O)c5c4[C@@]2(CCN3CC2CC2)[C@H]1O5
5 minutes post dose, sensitivity analysis excluding outliers, n 48
  LS Mean VE Change: 5.052 L/min
Part 2, 5 minutes, sensitivity analysis
  LS mean change in minute ventilation: 5.052 L/min
